# Laboratory results published in PubChem BioAssay AID2544 (Sanford-Burnham Center for Chemical Genomics, 2010).
# Sequences of proteins named here, by UniProt entry; tags and fusion partners are left off.
# UniProt P09923, whole entry: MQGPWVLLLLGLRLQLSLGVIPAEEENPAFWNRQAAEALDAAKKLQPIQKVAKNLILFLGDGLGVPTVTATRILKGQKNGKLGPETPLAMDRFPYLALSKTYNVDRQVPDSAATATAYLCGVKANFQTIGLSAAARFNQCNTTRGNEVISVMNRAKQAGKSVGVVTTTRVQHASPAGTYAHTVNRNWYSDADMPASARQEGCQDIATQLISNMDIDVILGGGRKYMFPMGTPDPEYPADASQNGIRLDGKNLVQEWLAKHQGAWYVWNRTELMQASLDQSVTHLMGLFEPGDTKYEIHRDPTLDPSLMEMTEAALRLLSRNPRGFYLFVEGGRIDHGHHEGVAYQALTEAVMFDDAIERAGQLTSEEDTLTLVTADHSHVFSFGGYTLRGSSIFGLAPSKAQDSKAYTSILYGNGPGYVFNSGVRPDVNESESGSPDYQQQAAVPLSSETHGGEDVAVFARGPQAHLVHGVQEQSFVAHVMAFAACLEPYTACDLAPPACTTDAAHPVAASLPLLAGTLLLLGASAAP
# The list shows a part of the results, in another mix than the full data. The source made the active and inactive calls.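 Rule for the calls: active = inhibition reaching a set limit with compound at 10 µM in the primary screen (cut at about 35% in these data); inactive = the rest.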
# Molecular target: Intestinal-type alkaline phosphatase (Homo sapiens) (UniProt P09923)
# Test: blockers of intestinal alkaline phosphatase activity – biochemical, luminescence, uHTS, primary screen (AID 2544);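 note: plate controls were DMSO wells with enzyme for no effect and no-enzyme buffer wells for full effect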
# Details: purified IAP, CDP-Star luminescence, 30 min; at 10 µM; stronger effect = higher value
row,Compound,inhibition
1,CN(C)C1(CNC(=O)c2cccc(C#N)c2)CCCCC1,inactive: -0.9%
2,c1ccc(CN2CCC(Nc3ccccc3)CC2)cc1,inactive: -1.5%
3,CCCN1CCC(Nc2cc(OC)cc(OC)c2)CC1,inactive: -24.3%
4,N#Cc1ccc(C(=O)NCC2(N3CCCCC3)CCCCC2)cc1,inactive: -2.1%
5,CC(C)(C)OC(=O)N1CCC(N(C(=O)c2ccccc2)c2ccc(Cl)cc2)CC1,inactive: 11.4%
6,CCOC(=O)N1CCC(Nc2ccc(C)cc2)CC1,inactive: -13.9%
7,N/C(=N\O)c1c(N)no[n+]1[O-],inactive: 5%
8,O=C(OC1CN2CCC1CC2)C1c2ccccc2C=Cc2ccccc21 (configuration not stated),inactive: 7.5%
9,CCc1cc(C(=O)NCC2(N3CCCCC3)CCCCC2)sc1C,inactive: 10.9%
10,COc1cc(C(=O)NCC2(N3CCOCC3)CCCCC2)cc(OC)c1C,inactive: -5.4%
11,O=C(NCC1(N2CCOCC2)CCCCC1)c1cc(Br)ccc1Cl,inactive: 3.9%
12,COc1ccc(C(=O)NCC2(N3CCOCC3)CCCCC2)cc1OC,inactive: 6.2%
13,COc1cccc(C(=O)N(c2cc(C)cc(C)c2)C2CCN(C(=O)OC(C)(C)C)CC2)c1,inactive: -20%
14,COc1cc(OC)cc(C(=O)NCC2(N3CCOCC3)CCCCC2)c1,inactive: -9.1%
15,CCC(CO)(C(=O)OC1CN2CCC1CC2)c1ccccc1 (configuration not stated),inactive: -3.9%
16,CN1CCC(Nc2ccc(Cl)cc2)CC1,inactive: -5.9%
17,CCCOc1ccc(C)cc1CN(CCCl)CCCl,inactive: -6.3%
18,CCOc1ncccc1C(=O)NCC1(N2CCOCC2)CCCCC1,inactive: 16%
19,CN1CCC(Nc2ccc(F)c(Cl)c2)CC1,inactive: -19.1%
20,CC(C)(C)OC(=O)N1CCC(Nc2ccccc2)CC1,inactive: -7.2%
21,O=C(O)C1(Nc2ccccc2)CCN(Cc2ccccc2)CC1,inactive: -14.1%
22,CCCOc1ccc(C(=O)NCC2(N(C)C)CCCCC2)cc1,inactive: 13.8%
23,CCN1CCC(Nc2cccc(F)c2)CC1,inactive: -3.3%

row,Compound,inhibition
1,O=C(NCC1(N2CCCCC2)CCCCC1)c1ccco1,inactive: 13.6%
2,CN(C)c1ccc(C(=O)NCC2(N3CCCCC3)CCCCC2)cc1,inactive: -19.7%
3,COc1cc(OC)cc(C(=O)NCC2(N3CCCCC3)CCCCC2)c1,inactive: -10.1%
4,Cc1ccc(C(=O)NCC2(N3CCCCC3)CCCCC2)o1,inactive: 2.6%
5,Fc1ccccc1NC1CCN(Cc2ccccc2)CC1,inactive: -24%
6,CCOC(=O)N1CCC(Nc2cccc(C)c2)CC1,inactive: 2.1%
7,Cc1ccc(OCC(C)C)c(CN(CCCl)CCCl)c1,inactive: 1.4%
8,CCOc1ccc(C)cc1CN(CCCl)CCCl,inactive: -17.9%
9,O=C(NCC1(N2CCCCC2)CCCCC1)c1ccc(F)cc1,inactive: -1.6%
10,CCCCOc1ccc(C(=O)NCC2(N3CCOCC3)CCCCC2)cc1,inactive: -15.9%
11,CCOC(=O)N1CCC(Nc2ccc(F)cc2)CC1,inactive: -10.6%
12,COc1ccc(NC2CCN(CCc3ccccc3)CC2)c(OC)c1,inactive: 8.2%
13,O=C(NCC1(N2CCCCC2)CCCCC1)c1ccc(Cl)nc1,inactive: 8.2%
14,Cc1cc(C)cc(N(C(=O)c2ccccc2)C2CCN(C(=O)OC(C)(C)C)CC2)c1,inactive: 11.2%
15,O=C(NCC1(N2CCOCC2)CCCCC1)c1cc2ccccc2o1,inactive: -11.3%
16,O=C(OC1CN2CCC1CC2)C1c2ccccc2Oc2ccccc21 (configuration not stated),inactive: 5.3%
17,N#CC1(Nc2ccccc2)CCN(Cc2ccccc2)CC1,inactive: 0.1%
18,O=C(NCC1(N2CCCCC2)CCCCC1)c1ccc(Cl)s1,inactive: 0.6%
19,COc1ccc(Cl)cc1C(=O)NCC1(N2CCOCC2)CCCCC1,inactive: 7.4%
20,CCOC(=O)N1CCC(Nc2ccc(OC)cc2)CC1,inactive: -12.1%
21,COc1ccc(C(=O)NCC2(N3CCCCC3)CCCCC2)cc1,inactive: 3.2%
22,COc1ccc(C(=O)NCC2(N3CCCCC3)CCCCC2)c(OC)c1OC,inactive: -15%
23,CC(C)(C)OC(=O)N1CCC(N(C(=O)c2ccccc2)c2ccc(F)cc2)CC1,inactive: 6.2%

row,Compound,inhibition
1,O=C(NCC1(N2CCCCC2)CCCCC1)c1ccc(=O)[nH]c1,inactive: 4.1%
2,O=C(NCC1(N2CCCCC2)CCCCC1)c1cccs1,inactive: 6.4%
3,CSc1ccccc1C(=O)NCC1(N2CCCCC2)CCCCC1,inactive: 1.3%
4,O=C(NCC1(N2CCCCC2)CCCCC1)c1cncc(Br)c1,inactive: 4.8%
5,CN1CCC(Nc2cccc(F)c2)CC1,inactive: 3.1%
6,CC(C)c1ccc(NC2CCN(C(=O)OC(C)(C)C)CC2)cc1,inactive: -10.4%
7,COc1ccc(CN(CCCl)CCCl)cc1Cl,inactive: -11.9%
8,CN(C)c1cccc(C(=O)NCC2(N3CCCCC3)CCCCC2)c1,inactive: -15.1%
9,COc1cc(OC)c(C(=O)NCC2(N(C)C)CCCCC2)cc1OC,inactive: -9.4%
10,O=C(NCC1(N2CCOCC2)CCCCC1)c1cc(F)c(F)cc1Cl,inactive: -5.4%
11,O=C(NCC1(N2CCCCC2)CCCCC1)c1cccc(C(F)(F)F)c1,inactive: -10.1%
12,O=C(NCC1(N2CCOCC2)CCCCC1)c1cc(=O)[nH]c2ccccc12,inactive: -6.7%
13,COc1cc(C(=O)NCC2(N3CCCCC3)CCCCC2)ccc1OC(F)F,inactive: 18.3%
14,COc1ccc(NC2CCN(C(=O)OC(C)(C)C)CC2)cc1,inactive: 3.5%
15,CC(C)c1ccc(C(=O)NCC2(N3CCOCC3)CCCCC2)cc1,inactive: -15.9%
16,CN1CCN(CCOC(=O)C(O)(c2ccccc2)c2ccccc2)CC1,inactive: 11.3%
17,O=C(NCC1(N2CCCCC2)CCCCC1)c1ccc(OC(F)F)cc1,inactive: -18.1%
18,CCN1CCC(Nc2ccc(Cl)cc2)CC1,inactive: 18.1%
19,N#CC1(Nc2ccccc2)CCN(CCc2ccccc2)CC1,inactive: -8.9%
20,CSc1ccc(C(=O)NCC2(N3CCOCC3)CCCCC2)cc1,inactive: -8%
21,O=C(NCC1(N2CCCCC2)CCCCC1)c1cccc([N+](=O)[O-])c1,inactive: 13%
